Consider one compound from paper PMC5963757, “Expression, purification, and inhibition profile of dihydrofolate reductase from the filarial nematode Wuchereria bancrofti” (PLoS ONE, 2018).

Test [1] addresses T1, WbDHFR (Wuchereria bancrofti, UniProt J9F199). Type of test: biochemical. As to the method: Compounds (-)-epicatechin, (-)-epicatechin gallate, and vitexin were tested as inhibitors of WbDHFR and BmDHFR. The compounds (-)-epicatechin and (-)-epicatechin gallate were synthesized as described previously. […] Disappearance of DHF and NADPH was observed by measuring absorbance at 340 nm to measure the DHFR activity in a SpectraMax M3 microplate reader. […] All experiments were completed in triplicate.

In test [2] the target is T1, WbDHFR. The protocol: To determine the mechanism of inhibition, Dixon plots were created and analyzed for the inhibitors against WbDHFR. We determined WbDHFR activity as described above at DHF concentrations of 2 μM, 4 μM, and 8 μM in 200 μL reaction volumes. WbDHFR (6 nM) and 100 μM NADPH cofactor were included in 1 X MTEN buffer at pH 6.0. […] The reciprocal initial velocities were plotted against inhibitor concentration for each substrate in Excel to create the Dixon plots. Substrate trend-lines were extended to calculate the intersection point,–KI. Each Dixon plot was generated in triplicate.
A linear equation was fitted to the data at each substrate concentration. […] The KI values for BmDHFR in Table 1 were obtained using the Cheng-Prusoff Equation [18]. […] Inhibitor structures are shown in supporting information (S2 Fig).

Where two headings read alike, the source gives them in different places.

What is called IC50 is the concentration that gives 50% inhibition. The term Ki denotes a dissociation constant, usually derived from enzyme kinetics or from competition with a known ligand.

As for `CN(Cc1cnc2nc(N)nc(N)c2n1)c1ccc(C(=O)N[C@@H](CCC(=O)O)C(=O)O)cc1` [Methotrexate, methotrexate], the IC50 in test [1] (read-out: IC50 WbDHFR, pH 6.0, 100 μM NADPH, 50 μM DHF, 12.1 nM WbDHFR, average of triplicates ± S.D.) amounted to 18 ± 3 nM; in test [1] (read-out: IC50 against WbDHFR Average, average of three trials) it was 17.6 nM; in test [1] (read-out: IC50 against WbDHFR Trial 1, individual trial), 15.1 nM; in test [1] (read-out: IC50 against WbDHFR Trial 2, individual trial), 20.1 nM; in test [1] (read-out: IC50 against WbDHFR Trial 3, individual trial) it was 17.5 nM. Besides, the Ki was 0.68 nM in test [2] (read-out: Average KI, WbDHFR, average of three trials, Dixon plots); 0.809 nM in test [2] (read-out: KI Trial 1, WbDHFR, individual trial, Dixon plot); 0.69 nM in test [2] (read-out: KI Trial 2, WbDHFR, individual trial, Dixon plot); 0.555 nM in test [2] (read-out: KI Trial 3, WbDHFR, individual trial, Dixon plot); 0.7 ± 0.1 nM in test [2] (read-out: KI WbDHFR, from Dixon plots, 6 nM WbDHFR, 100 μM NADPH, DHF 2, 4, 8 μM, pH 6.0, ± S.D.).
